# Measured values: US10238609B2, “Cyanide antidote compositions and methods of use” (dated 2019)
# The chains behind the UniProt entries cited, without tags or fusion partners. Residues count along the entry.
# UniProt P00586, 2-297 limits assumed: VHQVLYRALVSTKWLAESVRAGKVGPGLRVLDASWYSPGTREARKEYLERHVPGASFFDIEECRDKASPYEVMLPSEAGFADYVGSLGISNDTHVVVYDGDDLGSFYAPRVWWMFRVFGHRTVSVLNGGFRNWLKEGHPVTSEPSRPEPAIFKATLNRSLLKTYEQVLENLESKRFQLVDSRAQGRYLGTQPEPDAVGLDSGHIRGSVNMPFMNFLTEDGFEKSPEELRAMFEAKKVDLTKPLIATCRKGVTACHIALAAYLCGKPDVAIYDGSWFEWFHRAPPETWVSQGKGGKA
# Tests used:
# [1] = In vitro conversion of potassium cyanide (KCN) to SCN by sulfur analogs in the absence of rhodanese; conditions: 0.2 mL of 0.125 mM sulfur analog, 250 mM KCN, 5 minute incubation, colour at 464 nm
# [2] = target: rhodanese (Bos taurus, UniProt P00586); assay: In vitro conversion of potassium cyanide (KCN) to SCN by sulfur analogs in the presence of rhodanese; conditions: for rate of conversion of potassium cyanide to SCN, Rhodanese present: Rhodanese present (0.595 Units), 0.2 mL of 0.125 mM sulfur analog, 250 mM KCN, 5 minute incubation, colour at 464 nm
SMILES,"rate of conversion of potassium cyanide to SCN, No Rhodanese [1]","rate of conversion of potassium cyanide to SCN, Rhodanese present [2]","factor faster conversion of cyanide to SCN as compared to sodium thiosulfate ([2]; in the presence and absence of rhodanese, relative to sodium thiosulfate)"
Cc1ccc(S(=O)(=O)SSSS(=O)(=O)c2ccc(C)cc2)cc1,0.158 mM of SCN/min,0.16 mM of SCN/min,≥ 10 times
O=S(O)(O)=S,0.0029 mM of SCN/min,0.005 mM of SCN/min,–
